Results on one substance are retold here after article PMC9830440, “Simplified one-pot ^18F-labeling of biomolecules with in situ generated fluorothiophosphate synthons in high molar activity” (Theranostics, 2023).

Details of the series: species or system mice. Conditions: mouse, in vivo, iv. The method, then:
At 15 min post injection, the animals were anesthetized under 2% isoflurane and subjected to microPET/CT scans. Uptakes (%ID g-1) of major organs were calculated and reported as mean ± SD. Reconstruction of microPET images was performed with 3D OPMAP algorithm. 13.2 MicroPET/CT imaging with [18F]FTP-HSA Healthy mice received intravenous injection of [18F]FTP-HSA (3.70 MBq). Anesthetization was conducted with 2.5% isoflurane during preparation and 1.5% during scans. 60 min dynamic microPET/CT scans were acquired by an Inveon microPET/CT (Siemens, Germany). PET images reconstruction was performed with 3D OPMAP algorithm. Uptakes (%ID g-1) of major organs were calculated and reported as mean ± SD. 13.3 MicroPET/CT imaging with [ 18F]FTP-5F7 The MDA-MB -453 tumor bearing mice received an intravenous injection of [18F]FTP-5F7 (4.11 MBq). At 60 min post injection, the animals were anesthetized under 2% isoflurane and subjected to microPET/CT scans. Uptakes (%ID g-1) of major organs were calculated and reported as mean ± SD. Reconstruction of PET images was performed with 3D OPMAP algorithm. […]

“[^18F]FTP-HSA: human serum albumin labeled via [^18F]FTP-NHS”: the “radioactivity in the skeleton” value is “no apparent radioactivity”.
